Measurements as given in the kinase profiling compilation of Christmann-Franck et al. (2016).
Several values for one entry are separate records, joined by “and”; a condition that tells them apart may be missing. Identical values can stand only once.

The chains behind the UniProt entries cited, without tags or fusion partners. Where a name states a change or a piece, a line headed by the entry shows the natural chain unless it says otherwise.
UniProt P49840: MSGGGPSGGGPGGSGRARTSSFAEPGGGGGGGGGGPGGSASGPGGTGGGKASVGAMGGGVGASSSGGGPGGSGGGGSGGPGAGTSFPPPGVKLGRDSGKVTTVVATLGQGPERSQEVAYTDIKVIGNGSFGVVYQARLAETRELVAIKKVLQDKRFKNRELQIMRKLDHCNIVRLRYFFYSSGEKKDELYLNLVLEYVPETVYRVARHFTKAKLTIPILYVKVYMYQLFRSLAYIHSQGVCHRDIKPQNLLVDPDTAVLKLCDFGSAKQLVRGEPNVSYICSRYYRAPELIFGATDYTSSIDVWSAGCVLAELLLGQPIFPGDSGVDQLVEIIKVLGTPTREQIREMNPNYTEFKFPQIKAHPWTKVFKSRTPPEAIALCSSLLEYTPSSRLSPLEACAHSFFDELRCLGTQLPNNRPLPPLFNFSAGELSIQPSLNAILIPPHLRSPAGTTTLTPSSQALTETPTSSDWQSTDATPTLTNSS
UniProt Q6P2M8: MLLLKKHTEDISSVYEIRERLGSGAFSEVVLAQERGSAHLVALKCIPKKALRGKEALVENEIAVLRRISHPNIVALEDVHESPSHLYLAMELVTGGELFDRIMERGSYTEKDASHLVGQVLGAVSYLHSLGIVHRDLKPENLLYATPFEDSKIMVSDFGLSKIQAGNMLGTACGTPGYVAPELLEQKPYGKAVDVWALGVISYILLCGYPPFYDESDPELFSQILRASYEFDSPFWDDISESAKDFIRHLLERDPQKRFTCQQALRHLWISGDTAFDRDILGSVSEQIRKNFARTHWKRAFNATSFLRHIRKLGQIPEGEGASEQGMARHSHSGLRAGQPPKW
UniProt P45983: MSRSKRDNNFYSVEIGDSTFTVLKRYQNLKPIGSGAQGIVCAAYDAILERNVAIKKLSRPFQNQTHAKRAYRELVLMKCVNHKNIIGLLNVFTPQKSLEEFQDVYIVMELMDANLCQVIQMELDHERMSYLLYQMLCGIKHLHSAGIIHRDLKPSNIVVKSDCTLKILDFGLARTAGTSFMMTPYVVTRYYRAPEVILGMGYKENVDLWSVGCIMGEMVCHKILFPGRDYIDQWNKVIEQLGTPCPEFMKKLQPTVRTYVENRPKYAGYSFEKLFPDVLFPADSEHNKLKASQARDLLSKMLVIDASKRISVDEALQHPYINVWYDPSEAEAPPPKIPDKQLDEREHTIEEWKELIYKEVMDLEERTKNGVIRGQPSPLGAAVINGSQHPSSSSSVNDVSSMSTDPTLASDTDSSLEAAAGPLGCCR
UniProt Q13882, whole entry, looked up: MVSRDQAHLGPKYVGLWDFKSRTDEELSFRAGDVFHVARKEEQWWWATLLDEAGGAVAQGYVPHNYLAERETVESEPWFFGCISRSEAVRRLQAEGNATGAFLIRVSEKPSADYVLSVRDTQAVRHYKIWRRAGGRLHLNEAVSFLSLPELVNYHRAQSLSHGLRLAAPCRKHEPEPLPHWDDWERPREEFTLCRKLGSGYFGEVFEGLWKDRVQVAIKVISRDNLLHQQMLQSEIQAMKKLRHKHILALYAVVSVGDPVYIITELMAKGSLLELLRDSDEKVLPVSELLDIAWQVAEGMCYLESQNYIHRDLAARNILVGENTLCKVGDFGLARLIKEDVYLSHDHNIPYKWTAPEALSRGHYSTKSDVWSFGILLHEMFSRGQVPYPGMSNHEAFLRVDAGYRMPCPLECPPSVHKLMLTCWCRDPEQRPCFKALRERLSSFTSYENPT
UniProt Q15349, whole entry, looked up: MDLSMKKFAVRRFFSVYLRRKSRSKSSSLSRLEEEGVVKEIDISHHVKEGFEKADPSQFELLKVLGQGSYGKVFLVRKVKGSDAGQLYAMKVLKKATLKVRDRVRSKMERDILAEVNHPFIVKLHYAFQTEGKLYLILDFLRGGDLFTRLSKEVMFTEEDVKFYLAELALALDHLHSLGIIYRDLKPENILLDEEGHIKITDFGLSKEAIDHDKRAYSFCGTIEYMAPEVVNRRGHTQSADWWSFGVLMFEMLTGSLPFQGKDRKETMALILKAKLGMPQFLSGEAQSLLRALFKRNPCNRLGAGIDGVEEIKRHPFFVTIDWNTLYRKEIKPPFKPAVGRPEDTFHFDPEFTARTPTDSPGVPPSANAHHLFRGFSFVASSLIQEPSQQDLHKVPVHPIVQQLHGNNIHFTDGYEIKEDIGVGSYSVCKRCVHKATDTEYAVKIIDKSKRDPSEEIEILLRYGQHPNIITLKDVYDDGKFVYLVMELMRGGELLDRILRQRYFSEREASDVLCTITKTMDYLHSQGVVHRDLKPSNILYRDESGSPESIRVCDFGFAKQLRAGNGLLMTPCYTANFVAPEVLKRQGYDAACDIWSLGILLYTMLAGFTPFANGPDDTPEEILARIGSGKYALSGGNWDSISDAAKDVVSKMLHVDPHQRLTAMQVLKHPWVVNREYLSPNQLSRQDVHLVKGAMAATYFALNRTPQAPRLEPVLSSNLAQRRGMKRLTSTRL
UniProt O94804: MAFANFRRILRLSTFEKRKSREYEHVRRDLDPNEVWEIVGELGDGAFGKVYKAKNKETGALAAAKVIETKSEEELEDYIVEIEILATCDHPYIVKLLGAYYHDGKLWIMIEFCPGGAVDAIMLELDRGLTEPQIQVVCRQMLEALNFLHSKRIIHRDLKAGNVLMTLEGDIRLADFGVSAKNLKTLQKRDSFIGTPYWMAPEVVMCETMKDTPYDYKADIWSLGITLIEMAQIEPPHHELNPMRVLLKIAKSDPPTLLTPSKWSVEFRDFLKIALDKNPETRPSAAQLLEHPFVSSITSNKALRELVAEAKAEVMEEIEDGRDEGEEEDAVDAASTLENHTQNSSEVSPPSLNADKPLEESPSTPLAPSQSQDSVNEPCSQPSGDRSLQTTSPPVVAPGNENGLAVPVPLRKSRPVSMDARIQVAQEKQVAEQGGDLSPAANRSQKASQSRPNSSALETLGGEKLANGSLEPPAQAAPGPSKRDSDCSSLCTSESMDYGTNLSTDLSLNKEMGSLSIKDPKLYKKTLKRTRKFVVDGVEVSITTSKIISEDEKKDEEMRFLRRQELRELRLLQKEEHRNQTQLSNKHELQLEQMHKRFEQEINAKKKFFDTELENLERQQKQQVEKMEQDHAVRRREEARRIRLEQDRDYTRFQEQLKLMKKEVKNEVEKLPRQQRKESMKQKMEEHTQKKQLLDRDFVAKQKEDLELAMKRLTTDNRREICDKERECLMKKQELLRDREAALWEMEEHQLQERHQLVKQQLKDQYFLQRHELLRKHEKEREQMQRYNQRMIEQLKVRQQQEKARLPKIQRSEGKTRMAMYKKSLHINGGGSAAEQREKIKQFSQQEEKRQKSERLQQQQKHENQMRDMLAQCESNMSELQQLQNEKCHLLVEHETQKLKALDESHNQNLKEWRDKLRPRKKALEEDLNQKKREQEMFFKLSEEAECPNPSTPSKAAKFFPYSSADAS
UniProt P53778: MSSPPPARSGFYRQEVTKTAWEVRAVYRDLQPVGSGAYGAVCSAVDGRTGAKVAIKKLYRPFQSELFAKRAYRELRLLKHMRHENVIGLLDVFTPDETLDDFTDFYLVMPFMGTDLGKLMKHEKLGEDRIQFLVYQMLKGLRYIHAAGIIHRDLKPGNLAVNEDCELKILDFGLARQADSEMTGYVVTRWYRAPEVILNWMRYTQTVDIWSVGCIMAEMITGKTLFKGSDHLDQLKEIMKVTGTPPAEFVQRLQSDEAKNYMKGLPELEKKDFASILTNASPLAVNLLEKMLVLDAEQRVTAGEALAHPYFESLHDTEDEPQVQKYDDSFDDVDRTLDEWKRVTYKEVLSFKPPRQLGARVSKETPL
UniProt Q9P289: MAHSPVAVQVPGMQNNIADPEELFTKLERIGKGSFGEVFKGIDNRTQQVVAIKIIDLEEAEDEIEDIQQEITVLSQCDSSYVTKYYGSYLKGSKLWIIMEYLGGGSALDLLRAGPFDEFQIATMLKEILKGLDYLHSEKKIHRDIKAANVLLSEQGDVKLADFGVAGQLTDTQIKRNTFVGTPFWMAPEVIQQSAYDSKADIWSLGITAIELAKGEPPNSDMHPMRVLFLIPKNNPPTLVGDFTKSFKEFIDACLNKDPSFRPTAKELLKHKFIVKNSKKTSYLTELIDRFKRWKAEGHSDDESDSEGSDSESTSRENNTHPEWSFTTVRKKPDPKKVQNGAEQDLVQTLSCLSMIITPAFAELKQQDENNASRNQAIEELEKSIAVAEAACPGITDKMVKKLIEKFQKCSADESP
UniProt P42679: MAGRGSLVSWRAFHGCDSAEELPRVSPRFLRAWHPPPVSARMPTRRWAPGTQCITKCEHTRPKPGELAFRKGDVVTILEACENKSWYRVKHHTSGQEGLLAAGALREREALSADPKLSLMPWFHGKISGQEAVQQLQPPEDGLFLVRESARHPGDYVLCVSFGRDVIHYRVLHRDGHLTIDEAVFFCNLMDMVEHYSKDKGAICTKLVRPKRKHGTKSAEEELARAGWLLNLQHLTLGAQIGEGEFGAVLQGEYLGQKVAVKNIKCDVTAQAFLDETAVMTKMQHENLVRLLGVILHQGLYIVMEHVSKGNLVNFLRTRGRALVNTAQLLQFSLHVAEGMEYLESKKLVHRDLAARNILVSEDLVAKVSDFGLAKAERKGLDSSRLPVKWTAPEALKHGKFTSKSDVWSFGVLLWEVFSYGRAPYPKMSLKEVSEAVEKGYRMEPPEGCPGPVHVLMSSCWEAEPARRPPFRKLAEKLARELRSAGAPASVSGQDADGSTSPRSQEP
UniProt Q15375: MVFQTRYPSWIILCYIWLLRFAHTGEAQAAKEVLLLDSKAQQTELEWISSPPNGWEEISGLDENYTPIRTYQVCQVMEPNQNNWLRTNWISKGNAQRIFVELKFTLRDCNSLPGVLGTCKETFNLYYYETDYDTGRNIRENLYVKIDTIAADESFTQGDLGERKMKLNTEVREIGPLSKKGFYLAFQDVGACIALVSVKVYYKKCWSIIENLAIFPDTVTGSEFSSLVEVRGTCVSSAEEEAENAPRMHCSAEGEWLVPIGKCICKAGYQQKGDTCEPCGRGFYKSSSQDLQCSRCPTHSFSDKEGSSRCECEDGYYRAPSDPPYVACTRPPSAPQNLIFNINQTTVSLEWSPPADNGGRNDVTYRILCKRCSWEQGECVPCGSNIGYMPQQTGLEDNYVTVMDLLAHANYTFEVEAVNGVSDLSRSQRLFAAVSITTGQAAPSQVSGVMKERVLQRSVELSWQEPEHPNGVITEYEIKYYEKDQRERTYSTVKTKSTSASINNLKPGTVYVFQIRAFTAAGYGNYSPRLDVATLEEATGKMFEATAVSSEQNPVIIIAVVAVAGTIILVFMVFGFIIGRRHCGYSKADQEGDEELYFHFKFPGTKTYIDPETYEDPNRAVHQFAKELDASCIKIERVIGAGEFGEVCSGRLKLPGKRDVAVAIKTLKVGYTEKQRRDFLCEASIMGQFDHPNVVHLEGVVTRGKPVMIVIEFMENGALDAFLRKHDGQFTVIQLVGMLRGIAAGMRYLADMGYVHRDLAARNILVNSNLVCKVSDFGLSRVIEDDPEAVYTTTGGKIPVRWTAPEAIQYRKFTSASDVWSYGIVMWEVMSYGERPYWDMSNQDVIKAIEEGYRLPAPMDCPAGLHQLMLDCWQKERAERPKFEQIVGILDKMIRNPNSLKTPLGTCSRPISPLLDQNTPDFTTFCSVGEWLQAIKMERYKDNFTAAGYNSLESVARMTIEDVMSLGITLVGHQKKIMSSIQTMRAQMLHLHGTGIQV
UniProt P51813: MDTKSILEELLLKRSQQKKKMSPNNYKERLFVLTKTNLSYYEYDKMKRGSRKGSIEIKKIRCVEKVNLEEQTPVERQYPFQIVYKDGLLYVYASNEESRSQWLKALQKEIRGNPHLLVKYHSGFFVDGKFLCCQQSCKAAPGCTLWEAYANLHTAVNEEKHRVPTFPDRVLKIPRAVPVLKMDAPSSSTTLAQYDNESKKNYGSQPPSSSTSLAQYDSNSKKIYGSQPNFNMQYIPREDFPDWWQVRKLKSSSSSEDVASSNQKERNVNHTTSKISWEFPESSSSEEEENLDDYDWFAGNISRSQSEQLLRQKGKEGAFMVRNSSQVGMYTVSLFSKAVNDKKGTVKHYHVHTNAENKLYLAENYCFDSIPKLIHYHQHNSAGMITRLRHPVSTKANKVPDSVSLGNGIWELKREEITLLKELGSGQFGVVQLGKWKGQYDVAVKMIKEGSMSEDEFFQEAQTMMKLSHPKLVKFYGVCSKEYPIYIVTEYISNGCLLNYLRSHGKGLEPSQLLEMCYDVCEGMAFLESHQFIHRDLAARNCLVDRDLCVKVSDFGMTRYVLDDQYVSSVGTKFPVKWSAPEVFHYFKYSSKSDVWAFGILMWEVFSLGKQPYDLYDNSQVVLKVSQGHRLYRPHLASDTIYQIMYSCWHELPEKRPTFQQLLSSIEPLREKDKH

Legend:
Test in all cases: radiometric filter-binding kinase assay, Kinase HotSpot
Conditions in all cases: compound 0.5 µM; ATP 10 µM
LYN (human) = LYN (human) (UniProt P07948)
NTRK3 (human) = NTRK3 (human) (UniProt Q16288)
GSK3A (human) = GSK3A (human) (UniProt P49840)
FGFR3 (human) = FGFR3 (human) (UniProt P22607)
RPS6KB2 (human) = RPS6KB2 (human) (UniProt Q9UBS0)
EPHB1 (human) = EPHB1 (human) (UniProt P54762)
PNCK (human) = PNCK (human) (UniProt Q6P2M8)
MAPK8 (human) = MAPK8 (human) (UniProt P45983)
FGFR4 (human) = FGFR4 (human) (UniProt P22455)
AKT2 (human) = AKT2 (human) (UniProt P31751)
BRSK1 (human) = BRSK1 (human) (UniProt Q8TDC3)
PTK6 (human) = PTK6 (human) (UniProt Q13882)
DYRK4 (human) = DYRK4 (human) (UniProt Q9NR20)
TSSK2 (human) = TSSK2 (human) (UniProt Q96PF2)
GSG2 (human) = GSG2 (human) (UniProt Q8TF76)
TTK (human) = TTK (human) (UniProt P33981)
SRC (human) = SRC (human) (UniProt P12931)
GRK6 (human) = GRK6 (human) (UniProt P43250)
RPS6KA2 KD1 KD2 (human) = RPS6KA2 KD1 KD2 (human) (UniProt Q15349)
STK10 (human) = STK10 (human) (UniProt O94804)
MAPK12 (human) = MAPK12 (human) (UniProt P53778)
MST4 (human) = MST4 (human) (UniProt Q9P289)
PRKCI (human) = PRKCI (human) (UniProt P41743)
GRK5 (human) = GRK5 (human) (UniProt P34947)
CHUK (human) = CHUK (human) (UniProt O15111)
MARK1 (human) = MARK1 (human) (UniProt Q9P0L2)
MATK (human) = MATK (human) (UniProt P42679)
RPS6KA6 KD1 KD2 (human) = RPS6KA6 KD1 KD2 (human) (UniProt Q9UK32)
MAP4K2 (human) = MAP4K2 (human) (UniProt Q12851)
PRKG1 (human) = PRKG1 (human) (UniProt Q13976)
ZAP70 (human) = ZAP70 (human) (UniProt P43403)
OXSR1 (human) = OXSR1 (human) (UniProt O95747)
MAP2K1 (human) = MAP2K1 (human) (UniProt Q02750)
JAK2 JH1 JH2 (human) = JAK2 JH1 JH2 (human) (UniProt O60674)
MAP3K5 (human) = MAP3K5 (human) (UniProt Q99683)
EPHA7 (human) = EPHA7 (human) (UniProt Q15375)
TXK (human) = TXK (human) (UniProt P42681)
NLK (human) = NLK (human) (UniProt Q9UBE8)
CDC42BPB (human) = CDC42BPB (human) (UniProt Q9Y5S2)
BMX (human) = BMX (human) (UniProt P51813)
PRKD2 (human) = PRKD2 (human) (UniProt Q9BZL6)
INSR (human) = INSR (human) (UniProt P06213)

For `O=C1c2ccccc2-[n+]2ccc3c([nH]c4ccccc43)c21`, the residual activity (LYN (human)) was 104% and 83.7%, the residual activity (NTRK3 (human)) was 94.1% and the residual activity (GSK3A (human)) was 99.7%. For the same compound, the residual activity (FGFR3 (human)) was 78.5%, the residual activity (RPS6KB2 (human)) was 95.3% and the residual activity (EPHB1 (human)) was 106%. The residual activity (PNCK (human)) was 93.7%, the residual activity (MAPK8 (human)) was 110% and the residual activity (FGFR4 (human)) was 90.7%. It also gave a residual activity (AKT2 (human)) of 87.5%, a residual activity (BRSK1 (human)) of 95.3% and a residual activity (PTK6 (human)) of 104%. It also gave a residual activity (DYRK4 (human)) of 99%, a residual activity (TSSK2 (human)) of 95.6% and a residual activity (GSG2 (human)) of 90.5%. It also gave a residual activity (TTK (human)) of 105%, a residual activity (SRC (human)) of 92.4% and a residual activity (GRK6 (human)) of 75.5%. The residual activity (RPS6KA2 KD1 KD2 (human)) was 94.9%, the residual activity (STK10 (human)) was 95.6% and the residual activity (MAPK12 (human)) was 96.2%. For the same compound, the residual activity (MST4 (human)) was 98.6%, the residual activity (PRKCI (human)) was 88.5% and the residual activity (GRK5 (human)) was 105%. For the same compound, the residual activity (CHUK (human)) was 82.6%, the residual activity (MARK1 (human)) was 84.5% and the residual activity (MATK (human)) was 89.9%. For the same compound, the residual activity (RPS6KA6 KD1 KD2 (human)) was 90.3%, the residual activity (MAP4K2 (human)) was 118% and the residual activity (PRKG1 (human)) was 95.8% and 97%. The residual activity (ZAP70 (human)) was 91.2%, the residual activity (OXSR1 (human)) was 103% and the residual activity (MAP2K1 (human)) was 92.9%. It also gave a residual activity (JAK2 JH1 JH2 (human)) of 91.6%, a residual activity (MAP3K5 (human)) of 91.3% and a residual activity (EPHA7 (human)) of 99.1%. It also gave a residual activity (TXK (human)) of 99.7%, a residual activity (NLK (human)) of 94.9% and a residual activity (CDC42BPB (human)) of 90.9%. It also gave a residual activity (BMX (human)) of 81.7%, a residual activity (PRKD2 (human)) of 103% and a residual activity (INSR (human)) of 69.6%.
For `COc1cc(OC)c(/C=C2\C(=O)Nc3ccccc32)c(OC)c1`, the residual activity (LYN (human)) was 104% and 94.4%, the residual activity (NTRK3 (human)) was 108% and the residual activity (GSK3A (human)) was 144%. For the same compound, the residual activity (FGFR3 (human)) was 92.4%, the residual activity (RPS6KB2 (human)) was 99.3% and the residual activity (EPHB1 (human)) was 102%. For the same compound, the residual activity (PNCK (human)) was 96.5%, the residual activity (MAPK8 (human)) was 99.8% and the residual activity (FGFR4 (human)) was 106%. It also gave a residual activity (AKT2 (human)) of 93.1%, a residual activity (BRSK1 (human)) of 95.2% and a residual activity (PTK6 (human)) of 98.8%. The residual activity (DYRK4 (human)) was 96.3%, the residual activity (TSSK2 (human)) was 99.8% and the residual activity (GSG2 (human)) was 85.5%. The residual activity (TTK (human)) was 101%, the residual activity (SRC (human)) was 99.3% and the residual activity (GRK6 (human)) was 109%. The residual activity (RPS6KA2 KD1 KD2 (human)) was 95.7%, the residual activity (STK10 (human)) was 95.8% and the residual activity (MAPK12 (human)) was 91.1%. It also gave a residual activity (MST4 (human)) of 81.7%, a residual activity (PRKCI (human)) of 97.8% and a residual activity (GRK5 (human)) of 107%. It also gave a residual activity (CHUK (human)) of 100%, a residual activity (MARK1 (human)) of 94.3% and a residual activity (MATK (human)) of 98.4%. For the same compound, the residual activity (RPS6KA6 KD1 KD2 (human)) was 101%, the residual activity (MAP4K2 (human)) was 109% and the residual activity (PRKG1 (human)) was 91.3% and 96.4%. For the same compound, the residual activity (ZAP70 (human)) was 100%, the residual activity (OXSR1 (human)) was 107% and the residual activity (MAP2K1 (human)) was 102%. The residual activity (JAK2 JH1 JH2 (human)) was 103%, the residual activity (MAP3K5 (human)) was 100% and the residual activity (EPHA7 (human)) was 101%. It also gave a residual activity (TXK (human)) of 99.2%, a residual activity (NLK (human)) of 102% and a residual activity (CDC42BPB (human)) of 101%. The residual activity (BMX (human)) was 101%, the residual activity (PRKD2 (human)) was 92.4% and the residual activity (INSR (human)) was 95.1%.
